Target: CB1 receptors (Rattus norvegicus, UniProt P20272)
Details: striatal tissue, animals treated chronically with WIN (tolerant)

By UniProt entry, the sequences of proteins in these tests, tags left out.
UniProt P20272, whole entry: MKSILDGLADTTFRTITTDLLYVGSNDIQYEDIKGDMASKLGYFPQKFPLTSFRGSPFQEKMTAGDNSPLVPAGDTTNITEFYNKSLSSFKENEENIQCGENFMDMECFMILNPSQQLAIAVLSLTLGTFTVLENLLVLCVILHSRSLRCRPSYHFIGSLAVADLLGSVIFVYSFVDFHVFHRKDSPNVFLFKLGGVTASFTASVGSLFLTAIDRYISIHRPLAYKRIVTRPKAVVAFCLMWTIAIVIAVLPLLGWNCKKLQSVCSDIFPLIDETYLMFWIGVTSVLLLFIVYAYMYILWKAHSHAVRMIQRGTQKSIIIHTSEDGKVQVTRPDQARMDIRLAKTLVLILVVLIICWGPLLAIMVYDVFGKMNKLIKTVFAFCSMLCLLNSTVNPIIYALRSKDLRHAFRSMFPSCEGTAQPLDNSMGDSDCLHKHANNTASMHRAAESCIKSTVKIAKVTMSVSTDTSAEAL

## CS(=O)(=O)O.Cc1c(C(=O)c2cccc3ccccc23)c2cccc3c2n1[C@H](CN1CCOCC1)CO3 [WIN, (R)-(+)-[2,3-Dihydro-5-methyl-3-(4-morpholinylmethyl)pyrrolo[1,2,3-de]-1,4-benzoxazin-6-yl]-1-naphthalenylmethanone mesylate]
  CB1 receptor G-protein coupling: switch in the CB1 receptor G-protein coupling from the Gαi type to the Gαs type
